Results taken from US12606529B2, “Sulfur and amide tropolone inhibitors of nucleotidyl transferases and uses therefor” (Saint Louis University, priority 2019, dated 2026).

Experiments:
HBV replication = HBV replication inhibition in HepDES19 cells (strand-preferential qPCR)
Procedure: Cells used for toxicity and HBV studies.
HBV replication inhibition studies. HepDES19 cells were seeded in 96-well plates at 4×10^4 cells per well in the absence of tetracycline. Test compounds in a final DMSO concentration of 1% were applied to cells 48 hours after induction of HBV replication and cells were incubated with compounds for 72 hours. Cells were washed in 200 μL of phosphate buffered saline (PBS) and lysed in 150 μL of core lysis buffer (10 mM Tris pH 7.4, 1% Tween20, 150 mM NaCl). Cells were incubated at room temperate on an orbital shaker at 350 rpm for 40 minutes. Cell lysate was transferred to a 96 well polymerase chain reaction (PCR) plate and centrifuged at 3300×g for 5 minutes. The supernatant (50 μL) from the cell lysate was transferred to a 96-well PCR plate and mixed with 20 units of micrococcal nuclease and 100 μM CaCl2. The lysate was incubated for 1 hour at 37° C., and then the nuclease was inactivated at 70° C. for ten minutes. Qiagen protease (0.005 Anson units) was added to the lysate and the mixture was incubated overnight. Qiagen protease was then inactivated at 95° C. for ten minutes.
The crude lysate was used as the template for strand-preferential quantitative polymerase chain reaction (q-PCR) analysis. Quantitative PCR was performed with 40 cycles of 95° C. for 15 s and 60° C. for 1 minute employing the Kappa Probe Force universal PCR master mix.

in vitro = conditions: human
human RNaseH1 = target: T1, human RNaseH1 (Homo sapiens, UniProt O60930); test: Biochemical inhibition of human RNaseH1 activity; conditions: Hu RNaseH IC50, Table 3 sulfur compounds
T1 sequence (O60930 1-286): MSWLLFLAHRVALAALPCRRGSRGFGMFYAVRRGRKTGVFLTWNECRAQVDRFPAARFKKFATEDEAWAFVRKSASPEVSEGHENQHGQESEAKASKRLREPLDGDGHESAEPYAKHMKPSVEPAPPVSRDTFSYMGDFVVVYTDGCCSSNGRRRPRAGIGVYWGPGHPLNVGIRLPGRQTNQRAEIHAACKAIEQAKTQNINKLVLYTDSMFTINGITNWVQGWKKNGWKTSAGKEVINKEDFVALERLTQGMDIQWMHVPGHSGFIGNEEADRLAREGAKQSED
Procedure: Biochemical inhibition of human RNaseH1 activity. Quantitative inhibition of the human RNaseH1 in the biochemical assays was assessed using a molecular beacon assay as described previously (Edwards et al., 2017). Recombinant human RNaseH 1 (0.3 μg) was incubated with 100 nM RNA:DNA substrate, 50 mM HEPES pH 8.0, 100 mM NaCl, 2 mM Tris(2-carboxyethyl)phosphine hydrochloride (TCEP), 0.05% Tween20, 5 units of RNaseOut, test compounds (0 to 500 μM), and 5% DMSO in a 100 μL reaction volume. The substrate was formed by annealing a complementary RNA oligonucleotide to a hairpin DNA oligonucleotide to hold the hairpin DNA oligonucleotide in an open conformation. The DNA oligonucleotide has a 5′ fluorescein reporter and a 3′ black hole quencher. […] Reactions were initiated with 5 mM MgCl2 and fluorescence was read using a Synergy HTS multi-mode plate reader at 37° C. […] Quantitative inhibition of the human RNaseH1 in biochemical assays was assessed using a FRET-based RNaseH assay under conditions previously reported for an RNaseH molecular beacon assay (Edwards et al., 2017). […] Cleavage of the RNA strand released the fluorescein from quenching, increasing fluorescence. Reactions were monitored for 90 min at 37° C. in a plate reader and initial reaction rates were calculated. […]

SMILES	Therapeutic index (CC50/EC50) for HBV (TI, SI) (HBV replication)	CC50 at 24 h (in vitro) [µM]	IC50 (human RNaseH1) [µM]
Cc1cc(O)c(=O)c(O)cc1S(=O)(=O)c1ccccc1 [compound 336]	67	45.4	–
CS(=O)(=O)c1cccc(O)c(=O)c1O [compound 387]	78	–	–
CC(C)Sc1cccc(O)c(=O)c1O [compound 695]	–	–	130
